By UniProt entry, the sequences of proteins in these tests, tags left out. Where a name states a change or a piece, a line headed by the entry shows the natural chain unless it says otherwise.
UniProt P35372, whole entry: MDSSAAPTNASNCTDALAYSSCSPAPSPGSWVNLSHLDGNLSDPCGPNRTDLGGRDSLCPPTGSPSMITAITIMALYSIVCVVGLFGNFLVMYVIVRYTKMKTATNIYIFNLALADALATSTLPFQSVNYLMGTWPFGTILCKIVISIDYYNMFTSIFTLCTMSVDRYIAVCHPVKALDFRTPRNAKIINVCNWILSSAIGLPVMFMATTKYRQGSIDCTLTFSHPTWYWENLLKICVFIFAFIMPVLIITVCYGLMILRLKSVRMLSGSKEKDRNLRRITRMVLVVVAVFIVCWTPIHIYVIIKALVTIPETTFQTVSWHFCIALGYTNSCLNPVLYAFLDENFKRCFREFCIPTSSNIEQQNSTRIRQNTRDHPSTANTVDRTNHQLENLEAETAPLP
UniProt P41145: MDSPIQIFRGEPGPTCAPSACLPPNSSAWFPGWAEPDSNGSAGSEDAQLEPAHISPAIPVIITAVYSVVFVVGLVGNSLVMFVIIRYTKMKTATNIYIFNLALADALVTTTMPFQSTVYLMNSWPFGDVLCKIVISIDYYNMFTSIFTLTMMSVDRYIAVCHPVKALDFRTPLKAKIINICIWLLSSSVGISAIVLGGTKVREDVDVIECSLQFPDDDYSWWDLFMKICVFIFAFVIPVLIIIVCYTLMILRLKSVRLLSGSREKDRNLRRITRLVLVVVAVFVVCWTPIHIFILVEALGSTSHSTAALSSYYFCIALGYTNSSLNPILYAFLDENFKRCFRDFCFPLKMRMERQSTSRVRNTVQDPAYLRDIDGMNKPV
UniProt P41143, whole entry: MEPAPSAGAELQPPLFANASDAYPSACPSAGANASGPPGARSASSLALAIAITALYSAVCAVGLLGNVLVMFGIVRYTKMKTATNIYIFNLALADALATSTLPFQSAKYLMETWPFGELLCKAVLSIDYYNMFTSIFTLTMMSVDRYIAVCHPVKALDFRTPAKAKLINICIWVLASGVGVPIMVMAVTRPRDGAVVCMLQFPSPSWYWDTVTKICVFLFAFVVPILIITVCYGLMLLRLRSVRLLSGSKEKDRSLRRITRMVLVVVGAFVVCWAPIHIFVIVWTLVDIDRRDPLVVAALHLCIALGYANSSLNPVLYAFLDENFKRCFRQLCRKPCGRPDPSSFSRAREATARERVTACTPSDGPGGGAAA

In ChEMBL document CHEMBL1139291, “Syntheses and opioid receptor binding properties of carboxamido-substituted opioids” (Bioorg Med Chem Lett, 2009):

How the values were obtained:
Mu-type opioid receptor = Mu-type opioid receptor (Homo sapiens, UniProt P35372); assay: biochemical; assay type: cell-based, CHO
[1] = molecular target: T1, Kappa-type opioid receptor (Homo sapiens, UniProt P41145); assay: biochemical; assay type: cell-based, CHO
[2] = molecular target: T1, Kappa-type opioid receptor; assay type: functional, cell-based, CHO
Cavia porcellus = species on record: Cavia porcellus; assay: Ratio of Ki for delta opioid receptor to Ki for kappa opioid receptor in guinea pig brain
[3] = molecular target: Delta-type opioid receptor (Homo sapiens, UniProt P41143); assay: Displacement of [3H]Naltrindole form human delta opioid receptor expressed in CHO cells; assay type: cell-based

Row | Compound | pKi (Mu-type opioid receptor) | pKi [1] | pEC50 [2] | Ratio Ki (Cavia porcellus) | pKi [3]
1 | CN(C)C[C@H]1CCCC[C@]1(O)c1cccc(O)c1 (relative stereo) [O-DESMETHYL TRAMADOL] | 8.07 |  |  |  | 
2 | CC1C2Cc3ccc(C(N)=O)cc3C1(C)CCN2CC1CC1 (stereo not given) |  | 10.22 | 8.62 |  | 
3 | CC1C2C(=O)c3ccc(C(N)=O)cc3C1(C)CCN2CC1CC1 (stereo not given) |  |  |  | 11 | 
4 | Oc1ccc2c3c1O[C@H]1[C@@H](O)CC[C@@]4(O)[C@@H](C2)N(CC2CC2)CC[C@]314 | 9.68 | 9.25 |  |  | 7.25
5 | Oc1ccc2c3c1O[C@H]1[C@H](O)CC[C@@]4(O)[C@@H](C2)N(CC2CC2)CC[C@]314 | 9.72 | 9.32 |  |  | 7.28

pEC50, pKi: −log10 of the molar value.
